# Source: US5593678A, “Protection of teleost fish” (University of Georgia Research Foundation, priority 1994, dated 1997)
# Tested on: NCC (lysis of IM-9 target cells)
# Details: 20 mM, 120 minutes, E:T 50:1
# Protocol: FIG. 4. Individual and combined effects of phosphatase inhibitors on NCC cytotoxicity, NCC (7×10^5 cells) were incubated with either media (.diamond.), vanadate (Δ) (5 mM). NaF (.smallcircle.) (20 mM), or both vanadate and NaF (.quadrature.) for the indicated time periods before addition to labeled IM-9 target cells.
# FIG. 5. Effects of removal of Na3 VO4 on NCC activation. NCC were harvested, incubated for three hours, washed, counted and added to duplicate tubes containing either media alone or media containing 2.5, 5 and 10 mM vanadate. […]
# FIG. 6. […] NCC were harvested, incubated for three hours in media, washed, counted and added to duplicate tubes containing media alone or in the presence of 5, 10 and 20 mM NaF. […]
# FIG. 7. […] The cells were incubated in media for three hours, washed, counted and added to test tubes containing either media alone or media with 2.5, 5 and 10 mM vanadate. […]
# FIG. 8. […] The cells were incubated in media for three hours, washed, counted and added to media or media with 5, 10 and 20 mM NaF. […]
# A ^51 Cr release assay was used to determine cytotoxicity. […] This mixture was incubated (25° C.) for 4-6 hours and 100 μl of each supernatant was removed to determine radioactivity (Beckman Biogamma II Counter; Beckman Instruments, Irvine, Calif.). […]
compound,measurement,value
"[F-].[Na+] [Sodium fluoride, sodium fluoride]",Percentage of control (NCC cytotoxic activity),225.8%
